Patent publication US7622266B2, “Identification of a synthetic ligand for retinoic acid receptor beta” (Institut Pasteur, priority 1987, dated 2009)

Amino acid sequences for entries named in this document (tags omitted). Residues count along the entry.
UniProt P10826, 1-448 isoform P10826-2: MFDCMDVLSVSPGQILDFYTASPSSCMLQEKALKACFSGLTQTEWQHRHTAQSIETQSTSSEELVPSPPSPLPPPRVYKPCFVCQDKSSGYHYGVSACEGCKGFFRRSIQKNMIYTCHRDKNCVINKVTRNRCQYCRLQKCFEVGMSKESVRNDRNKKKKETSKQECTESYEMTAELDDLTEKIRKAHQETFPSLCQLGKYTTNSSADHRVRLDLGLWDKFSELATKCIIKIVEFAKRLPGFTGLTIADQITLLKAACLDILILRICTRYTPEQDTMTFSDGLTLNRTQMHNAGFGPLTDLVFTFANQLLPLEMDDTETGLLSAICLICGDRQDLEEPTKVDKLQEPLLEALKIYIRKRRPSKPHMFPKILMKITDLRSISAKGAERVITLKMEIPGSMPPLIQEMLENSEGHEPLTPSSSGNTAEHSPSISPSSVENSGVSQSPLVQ

Target: T1, in vitro translated hap polypeptide (Homo sapiens, UniProt P10826)
T1 construct: made in house; host or cells: rabbit reticulocyte lysate (in vitro translation of T7 transcripts of pCOD20)
Assay: Hormone-binding assay with in vitro translated hap polypeptide
Conditions: reticulocyte lysate, overnight 0° C., Dextran coated charcoal
Source text: The ability to express functional receptors in vitro from cloned c-erbA/steroid receptor genes led to the use of an in vitro translation assay to identify a putative hap ligand.
The coding region of hap was cloned into pTZ18 plasmid vector to allow in vitro transcription with the T7 RNA polymerase and subsequent translation in reticulocyte lysates. More particularly, ^35S-methionine-labelled products synthesized using T7 polymerase-catalysed RNA transcripts were separated on a 12% SDS-polyacrylamide gel, which was fluorographed. (DMSO-PPO). The lanes in FIG. 5 are as follows:
pCOD20 and pCOD14 were linearized with HindIII. Capped mRNA was generated using 5 ug of DNA, 5 uM rNTP, 25 mM DTT, 100 U RNAsin (Promega), 50 U T7 Pol (Genofit) in 40 mM Tris pH 8, 8mM MgCl2, 2 mM spermidine, 50 mM NaCl, in 100 ul at 37° C. Capping was performed by omitting GTP and adding CAP (m^7 G (5′) ppp (5′) G) (Pharmacia) for the 15 first minutes of the reaction.
After at least 2 h of incubation at 0° C., free was separated from bound by filtration through millipore HAWP 02500 filters using 10 ml of ice cold buffer. For testosterone, retinol, retinoic acid 10 ul of lysate were added to 45 lambda of 20 mM Tris pH 7.3, 1 mM EDTA, 50 mM NaCl, 2 mM beta-mercaptoethanol and […], […] or […] (81 ci/mmol; 60 Ci/mmol; 46 Ci/mmol; Amersham). […]

CC1=C(/C=C/C(C)=C/C=C/C(C)=C/C(=O)O)C(C)(C)CCC1 [RA, All-trans-retinoic acid]
binding of (3H)-labelled ligand to in vitro translated hap polypeptide: negative
